Measurements: patent publication US20050049242A1 (priority 2000, published 2005)

Test system: HIVLAI
Experiment: Anti-HIV assay, protection from HIV-induced cell death
Assay type: cell-based
Details: read-out: ED50 (concentration that inhibits HIV-induced cell death by 50%), MT-2 cells, 72 hr

Structure (SMILES): O=C(O)[C@](O)(C(=O)/C=C/c1ccc(O)c(O)c1)[C@](O)(C(=O)O)C(=O)/C=C/c1ccc(O)c(O)c1 [Compound 2, Dicaffeoyl-D-tartaric acid]
- EC50: 6.3 µM
